Rows were chosen to be rich in hits. Some 16% of all compounds tested hit in one or more screens of this group.
DT40 TDP1 no CPT = qHTS for Inhibitors of human tyrosyl-DNA phosphodiesterase 1 (TDP1): qHTS in cells in absence of CPT. Potency, µM (series often up to 46.2 µM), for the others: at the highest dose activity change, negative = growth inhibition, usual class: inhibitors. 15% of 420,000 active. DT40 Tdp1-/- hTDP1 cells, no CPT, ATP luminescence, 48 h. AID 686978, 2013; note: potency is the fitted concentration of half-maximal effect; % is set by controls: 0 for no effect and ±100 for the full control effect; nearly all actives have a fitted effect of over 55% in size
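Cells were dispensed at 400 per well, compounds added by pin tool, plates incubated ≥48 hr at 37 °C, then CellTiter-Glo added for 30 min at room temperature before luminescence reading. Line: DT40 Tdp1-/- complemented with hTDP1; camptothecin omitted.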
TDP1 block = TDP1 (human) enzyme inhibition. Q9NUW8. recombinant TDP1, AlphaScreen DNA substrate cleavage. Potency, µM (doses to about 130 µM), for the others: at the top dose activity change, negative = inhibition, actives largely listed as inhibitors. 0.28% of 350,000 active. AID 485290; note: potency is the fitted concentration of half-maximal effect; % is set by controls: 0 for no effect and ±100 for the full control effect; nearly all actives have a fitted effect of over 40% in size
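Steps: enzyme plus compound, 15 min RT; add biotin/phosphotyrosine-FITC oligonucleotide (15 nM final), react 5 min; add donor/acceptor beads (10 ug/ml final), 10 min; read AlphaScreen. Tdp1 at 1 nM final.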
DT40 TDP1 CPT = growth inhibition of DT40 Tdp1-/-;hTDP1 cells with camptothecin (screen for TDP1 inhibitors); Potency, µM (doses to about 46.2 µM), without a hit: at the top dose activity change, negative = growth inhibition, actives largely listed as inhibitors; AID 686979; 12% of 420,000 active; chicken DT40 Tdp1-/-;hTDP1 cells + 20 nM CPT, ATP luminescence, 48 h; note: potency is the fitted concentration of half-maximal effect; % is set by controls: 0 for no effect and ±100 for the full control effect; nearly all actives have a fitted effect of over 55% in size
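Chicken DT40 Tdp1-/- cells complemented with human TDP1, 400 cells/well, exposed to compounds plus 20 nM camptothecin for at least 48 h at 37 C; viability read as ATP content by CellTiter-Glo luminescence.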
uPA surface inh = blocks generation of uPA at the cell surface. cell surface uPA generation assay, qHTS. Potency, µM (titrated, usually from 38.3 µM), for inactives: at the top dose activity change, negative = inhibition, usual class: inhibitors. 0.31% of 330,000 active. AID 540303; active = well fitted inhibition curve with a large enough effect; inconclusive = small, poorly fitted or top-dose-only effect; inactive = no such curve, though single readings can be large or run the other way; tested in mouse RAW 264.7 cells; note: potency is the fitted concentration of half-maximal effect; % is set by controls: 0 for no effect and ±100 for the full control effect; nearly all actives have a fitted effect of over 55% in size
miR-21 reporter = raises the signal of a miR-21 reporter; Potency, µM (doses to about 38.3 µM), inactives show top-dose reporter change, positive = more light; HeLa miR-21 FLuc reporter, luciferase, 48 h; AID 2288; 340,000 tested, under 10 active; active = well fitted rising curve with a large enough effect; inconclusive = small, poorly fitted or top-dose-only effect; inactive = no such curve, though single readings can be large or run the other way;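 further: % of control where 0% means no effect; miR-21 action dims this reporter so a rising signal means less miR-21 action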
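HeLa cells stably expressing CMV-driven firefly luciferase with a downstream miR-21 binding sequence, endogenously expressing miR-21, were treated with titrations (up to about 40uM final) for 48 hours at 37 degree Celsius. Luciferase luminescence was read after lysis.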
Active calls of the source: *; ? = inconclusive; · = not tested or not shown; [ ] = another dose, or the depositor's remark. Unless noted, calls come from the whole dose curve; as a rule, active = well fitted curve in the direction sought with a large enough effect; inconclusive = small, poorly fitted or top-dose-only effect, or another doubt; inactive = no such curve, though single readings can be large; an effect the other way counts as inactive or inconclusive.

Start of the listing, in advance (two entries):
SMILES	DT40 TDP1 no CPT	TDP1 block	DT40 TDP1 CPT	uPA surface inh	miR-21 reporter
CN(C)C(=O)CCc1ccc2c3c([nH]c2c1)[C@]1(C)[C@@H](C(=O)N2CCOCC2)C[C@H](CC(=O)NCc2ccco2)C(=O)N1CC3	-12.9%	0.8%[56.1 µM]	-10.6%	8.1%	·
CC(C)=CCC/C(C)=C/CNC(=O)C[C@H]1C[C@H](C(=O)N2CCCCC2)[C@@]2(C)c3[nH]c4cc(CCC(=O)N(C)C)ccc4c3CCN2C1=O	14.6µM*	1.9%[56.1 µM]	7.31µM*	?	·

The listing, from the start:
SMILES	DT40 TDP1 no CPT	TDP1 block	DT40 TDP1 CPT	uPA surface inh	miR-21 reporter
CN(C)C(=O)CCc1ccc2c3c([nH]c2c1)[C@]1(C)[C@@H](C(=O)N2CCOCC2)C[C@H](CC(=O)NCc2ccco2)C(=O)N1CC3	-12.9%	0.8%[56.1 µM]	-10.6%	8.1%	·
CC(C)=CCC/C(C)=C/CNC(=O)C[C@H]1C[C@H](C(=O)N2CCCCC2)[C@@]2(C)c3[nH]c4cc(CCC(=O)N(C)C)ccc4c3CCN2C1=O	14.6µM*	1.9%[56.1 µM]	7.31µM*	?	·
CC[C@]12c3[nH]c4cc(CCC(=O)N(C)C)ccc4c3CCN1C(=O)[C@@H](CC(=O)NC/C=C(\C)CCC=C(C)C)C[C@@H]2C(=O)N1CCN(C(=O)C2CC2)CC1	6.51µM*	0.3%[56.1 µM]	8.2µM*	?	·
CC[C@]12c3[nH]c4ccc(Cl)cc4c3CCN1C(=O)[C@@H](CC(=O)NC/C=C(\C)CCC=C(C)C)C[C@@H]2C(=O)N1CCN(C(=O)C2CC2)CC1	20.6µM*	0.4%[56.1 µM]	?	?	·
CC(C)=CCC/C(C)=C/CNC(=O)C[C@H]1C[C@H](C(=O)N2CCOCC2)[C@@]2(C)c3[nH]c4cc(CCC(=O)N(C)C)ccc4c3CCN2C1=O	16.4µM*	0.0%[56.1 µM]	23.1µM*	10µM*	·
CC[C@]12c3[nH]c4cc(-c5ccco5)ccc4c3CCN1C(=O)[C@@H](CC(=O)NC/C=C(\C)CCC=C(C)C)C[C@@H]2C(=O)N1CCN(C(=O)C2CC2)CC1	?	4.0%[56.1 µM]	?	?	·
CC[C@]12c3[nH]c4ccc(Cl)cc4c3CCN1C(=O)[C@@H](CC(=O)NCc1ccc(OC)c(OC)c1)C[C@@H]2C(=O)N1CCN(C(=O)C2CC2)CC1	16.4µM*	0.3%[56.1 µM]	?	7.0%	·
CC[C@]12c3[nH]c4ccccc4c3CCN1C(=O)C(CC(=O)NC/C=C(\C)CCC=C(C)C)C[C@@H]2C(=O)N1CCN(C(=O)c2ccco2)CC1 (some centres undefined)	?	4.5%	16.4µM*	?	·
Cc1c(C(=O)C(=O)NCc2cccs2)c2ccccc2n1C	-28.2%	-2.5%	12.8%	-4.1%	-17.8%
Cc1ccc(CN2CCC(C(=O)Nc3ccc(Oc4cccnc4)cc3)CC2)cc1	16.4µM*	5.1%	18.4µM*	-23.7%	20.4%
Cc1cc(CN2CCCCC2C(=O)Nc2ccc(Oc3cccnc3)cc2)oc1C (centres undefined)	?	6.1%	?	7.6%	-13.2%
O=C(Nc1ccc(Oc2cccnc2)cc1)C1CCN(Cc2ccccc2F)CC1	?	2.1%	?	-7.6%	9.0%
O=C(Nc1ccc(Oc2cccnc2)cc1)C1CCN(Cc2cccc(Cl)c2)CC1	?	3.5%	18.4µM*	-20.8%	20.7%
CC(=O)c1cccc(CN2CCC(C(=O)Nc3ccc(Oc4cccnc4)cc3)CC2)c1	23.1µM*	2.9%	?	-7.2%	15.8%
CC(=O)c1cccc(CN2CCC(C(=O)Nc3ccc(-c4cccc(C)c4)cc3)CC2)c1	6.51µM*	·	10.3µM*	-11.6%	24.4%
O=[N+]([O-])c1ccccc1/C=N/n1c(C(F)(F)F)n[nH]c1=S	-4.3%	3.5%	0.4%	2.0%	1.5%
CCN(CC)C(=O)Cn1c(=O)nc(-c2ccccc2F)c2cc(Cl)ccc21	-9.9%	8.8%	-7.6%	·	0.1%
N#Cc1c(C(F)(F)F)cc(-c2cccs2)nc1SCC(=O)Nc1cccc(Br)c1	-37.3%	-3.2%	?	·	-1.6%
CCOc1ccccc1Oc1ccc(C(F)(F)F)cn1	-16.2%	0.0%	-16.3%	7.4%	-7.5%
Cc1cccc(C#N)c1NC1=CC(=O)CC(C)(C)C1	-22.6%	·	-17.2%	-4.2%	-3.2%
CCN1CCC(C(=O)NC(c2ccc(F)cc2)c2ncccc2C)CC1 (centres undefined)	-6.9%	·	-29.7%	·	·
COc1ccc(/C=C/CN2CCC(C(=O)NC(c3ccc(F)cc3)c3ccc4ccccc4n3)CC2)cc1 (centres undefined)	20.6µM*	·	18.4µM*	·	·
COc1ccc(C(NC(=O)C2CCN(CCOc3ccccc3)CC2)c2ccccn2)cc1 (centres undefined)	-7.3%	·	13.7%	·	·
CC(C)CN1CCC(C(=O)NC(c2ccc(F)cc2)c2ccc3ccccc3n2)CC1 (centres undefined)	23.1µM*	·	?	·	·
Cc1ccccc1Nc1nc(N)nc(COC(=O)CCS(=O)(=O)c2ccc(Cl)cc2)n1	?	-5.6%	-24.6%	4.3%	·
CCOc1ccc2oc(=O)cc(C)c2c1	-16.9%	-0.7%	2.8%	-2.5%	-15.7%
CCOc1ccc(Nc2cc(=O)oc3ccccc23)cc1	18.4µM*	-11.5%	10.3µM*	?	-13.6%
Cc1nc(-c2ccccc2)nc2[nH]c(C(C)C)cc(=O)c12	20.6µM*	-2.8%	?	-13.1%	14.5%
Cc1nc(-c2ccccc2)nc2[nH]c(=O)n(-c3ccccc3)c(=O)c12	?	4.7%	?	·	-25.8%
COC(=O)[C@@]12CCCCN1[C@H](c1ccc(-c3ccc(OC)cc3)cc1)[C@@H]1C(=O)N(C)C(=O)[C@@H]12	20.6µM*	0.2%	20.6µM*	-2.6%	·
COC(=O)[C@@]12CCCCN1[C@H](c1ccc(-c3ccc(C(C)=O)cc3)cc1)[C@@H]1C(=O)N(C)C(=O)[C@@H]12	23.1µM*	2.3%	14.6µM*	14.2%	·
COC(=O)[C@@]12CCCCN1[C@H](c1ccc(-c3ccc(OC)cc3)c(OC)c1)[C@@H]1C(=O)N(C)C(=O)[C@@H]12	?	1.4%	20.6µM*	10.1%	·
CCN1C(=O)[C@@H]2[C@@H](c3ccc(-c4ccc5c(c4)OCO5)c(OC)c3)N3CCCC[C@@]3(C(=O)OC)[C@@H]2C1=O	?	0.1%	?	20.9%	·
COC(=O)[C@@]12CCCCN1[C@H](c1ccc(-c3ccc4c(c3)OCO4)cc1)[C@H]1C(=O)N(C)C(=O)[C@H]12	23.1µM*	3.5%	13µM*	1.7%	·
O=C(O)Cc1csc(NC(=O)CSc2cccc(C(=O)O)n2)n1	-13.5%	·	-4.6%	-2.3%	0.8%
CN(C1CCCCC1)S(=O)(=O)c1ccc(NC(=O)C2CCCCC2)cc1	20.6µM*	4.7%	16.4µM*	·	2.1%
CN(C1CCCCC1)S(=O)(=O)c1ccc(F)c(C(=O)Nc2ccc(C(F)(F)F)cc2)c1	20.6µM*	7.8%	23.1µM*	·	17.7%
CN(C1CCCCC1)S(=O)(=O)c1ccc(NC(=O)CCC(=O)O)cc1	-0.1%	-1.1%	4.1%	2.1%	-3.5%
CN(C1CCCCC1)S(=O)(=O)c1ccc(S(=O)(=O)N(CC(=O)Nc2ccccc2)C2CC2)cc1	23.1µM*	-9.3%	?	5.5%	4.2%

3 neighbouring records from above:
SMILES	DT40 TDP1 no CPT	TDP1 block	DT40 TDP1 CPT	uPA surface inh	miR-21 reporter
Cc1ccccc1Nc1nc(N)nc(COC(=O)CCS(=O)(=O)c2ccc(Cl)cc2)n1	?	-5.6%	-24.6%	4.3%	·
CCOc1ccc2oc(=O)cc(C)c2c1	-16.9%	-0.7%	2.8%	-2.5%	-15.7%
CCOc1ccc(Nc2cc(=O)oc3ccccc23)cc1	18.4µM*	-11.5%	10.3µM*	?	-13.6%
